Laboratory results as given in patent US20030170847A1, “Genes involved in isoprenoid compound production” (priority 2001, published 2003).

System: lycopene cyclase in Rhodococcus ATCC 47072
Settings: for Major peak 15.3 min (443, 469, 500 nm; lycopene), share of carotenoids by HPLC / Minor peak 14.5 min (465 nm; wild type major carotenoid), share of carotenoids by HPLC / wild type major carotenoid, % of total carotenoids / inhibition of lycopene cyclase (estimated): 40 μM inhibitor; for Major peak 15.3 min (443, 469, 500 nm; lycopene), share of carotenoids by HPLC / Minor peak 14.5 min (465 nm; wild type major carotenoid), share of carotenoids by HPLC: ATCC 47072; for wild type major carotenoid, % of total carotenoids: ATCC 47072 cultured 24 hr; for inhibition of lycopene cyclase (estimated): ATCC 47072 cultured 24 hr at 30° C.; for carotenoid production: 40 μM, ATCC 47072 strain

Compound: CCN(CC)CCSc1ccc(Cl)cc1.Cl [CPTA, 2-(4-chlorophenylthio)-triethylamine hydrochloride]
- Major peak 15.3 min (443, 469, 500 nm; lycopene), share of carotenoids by HPLC: 95%
- Minor peak 14.5 min (465 nm; wild type major carotenoid), share of carotenoids by HPLC: 5%
- wild type major carotenoid, % of total carotenoids: 5%
- inhibition of lycopene cyclase (estimated): 95%
- carotenoid production: significantly decreased

Compound: CCN(CC)CCOc1ccc(C)cc1.Cl [MPTA, 2-(4-methylphenoxy)-triethylamine hydrochloride]
- Major peak 15.3 min (443, 469, 500 nm; lycopene), share of carotenoids by HPLC: 82%
- Minor peak 14.5 min (465 nm; wild type major carotenoid), share of carotenoids by HPLC: 18%
- wild type major carotenoid, % of total carotenoids: 18%
- inhibition of lycopene cyclase (estimated): 82%
- carotenoid production: significantly decreased
